Tested on: hMSCs
Test: Alkaline phosphatase (ALP) activity of hMSCs in osteogenic media
Assay type: cell-based, human
Conditions: OBM with BMP2 100 or 200 ng·mL-1, 3 donors
Protocol: For non-mineralizing osteogenic differentiation, hMSCs were plated in 12-well plates at 100 cells cm^−2. Upon reaching about 70% confluency, the media was changed to osteogenic base media (OBM) containing 50 μg mL^−1 ascorbic acid and 5 mM β-glycerol phosphate and either GW9662 or DMSO. Media was changed every 2 days for 8-10 days following measurement of ALP activity. For this purpose, the monolayer was washed with PBS and then with ALP reaction buffer (100 mM Tris-HCl, pH 9, containing 100 mM KCl and 1 mM MgCl2). One half mL of ALP buffer then 0.5 mL p-nitrophenol phosphate (PNPP) was rapidly added to the wells. ALP activity was measured as the rate of PNPP conversion to p-nitrophenolate by monitoring the absorbance at 405 nm every 30 seconds for 9 minutes using a plate reader. The rates were normalized against cell number and statistically analyzed using one-way analysis of variance (ANOVA) and Tukey post test for multiple comparisons or by Student's t-test, for single, unrelated comparisons.
Early osteogenic differentiation and alkaline phosphatase assays. […]
In order to characterize the influence of 7AIPM on osteogenic differentiation, hMSC's from two donors were cultured as described elsewhere herein with the addition of varying concentrations of the compound or vehicle to the media. […] These samples were analyzed for the presence of OPG and Dkk-1 using ELISA. […]

bone morphogenic protein 2 [BMP2]
ALP levels: improved further

Reference: patent publication US9452185B2, “Mesenchymal stem cells and supports for tissue regeneration, repair and reconstruction” (THE TEXAS A&M UNIVERSITY SYSTEM, priority 2009, dated 2016)
